Data reported in US7608281B2, “Composition and use of RAR antagonists for promoting chondrogenesis” (T. Michael Underhill, priority 1999, dated 2009).

Columns and labels:
[1] = tested on: wild-type limb mesenchyme micromass cultures; test: Cartilage nodule formation in wild-type limb bud micromass cultures (alcian blue staining); type: cell-based, murine
Description: (§1) Micromass cultures were prepared from murine E11.25 to E11.75 fore and hind limb buds as previously described with the following modifications (Cash et al. (1997) J. Cell Biol. 136, 445-457). After proteolytic digestion cells were filtered through a Cell Sieve ([…], Falcon) to obtain a single cell suspension. Culture media (40% Dulbecco's modified Eagle's medium, 60% F12 was supplemented with fetal bovine serum to 10%, Gibco-BRL) was changed daily. BMP-2 or -4 (Genetics Institutes), AGN 194301 (Allergan Pharmaceuticals) and/or purified Xenopus noggin protein was added to culture media at a concentration of 10 ng/ml, 1 μM and 10 ng/ml, respectively. Addition/removal experiments included either adding or removing supplemented media on the indicated culture day, 24 hours after culture initiation was considered day 1. To detect transgene-expressing cells, cultures were fixed stained as previously described, with magenta-gal (BioSynth International Inc.) being substituted for X-gal. This was followed by alcian blue staining for cartilage-specific glycosaminoglycans. Alcian blue staining of magenta-gal stained cultures turned the red precipitate to a purple color, this is a result of incubating magenta-gal stained cells at pH 1. This double-staining technique enables transgene-expressing cells to be localized with respect to alcian blue stained cartilage nodules.

[2] = tested on: transgenic fore limb micromass cultures; test: Cartilage nodule formation in transgenic (caRARα) limb bud micromass cultures; type: cell-based, murine; settings: 10 ng/ml BMP-2, six days, vs untreated
Description: as §1, with “nodules. […]” for “nodules.”

B1: BMP-2: bone morphogenetic protein 2 (Genetics Institutes) (protein, UniProt P12643 283-396, looked up)
Bone morphogenetic protein 2: QAKHKQRKRLKSSCKRHPLYVDFSDVGWNDWIVAPPGYHAFYCHGECPFPLADHLNSTNHAIVQTLVNSVNSKIPKACCVPTELSAISMLYLDENEKVVLKNYQDMVVEGCGCR
increase in number of cartilage nodules ([1]; 10 ng/ml BMP-2, six days, wild-type fore limb cultures, vs untreated): ~125% | increase in nodule number ([1]; BMP-2 alone 10 ng/ml, cultures from the same limb buds, FIG. 5M): ~45% | increase in number of cartilage nodules [2]: ~115%
